The values below come from article PMC3835680, “Inhibition of Nutlin-Resistant HDM2 Mutants by Stapled Peptides” (PLoS ONE, 2013).

Amino acid sequences for entries named in this document (tags omitted). Residues count along the entry.
UniProt Q00987, 1-125 M62A: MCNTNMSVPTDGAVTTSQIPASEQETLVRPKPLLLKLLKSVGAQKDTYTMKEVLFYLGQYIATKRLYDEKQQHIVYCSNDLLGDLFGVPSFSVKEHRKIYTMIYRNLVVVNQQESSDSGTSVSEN
UniProt Q00987, 1-125 Q24R: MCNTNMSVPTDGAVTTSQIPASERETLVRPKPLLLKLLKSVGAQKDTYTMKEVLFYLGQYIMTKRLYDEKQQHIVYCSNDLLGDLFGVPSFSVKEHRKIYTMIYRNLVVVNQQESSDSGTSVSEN
UniProt Q00987, 1-125 P20L: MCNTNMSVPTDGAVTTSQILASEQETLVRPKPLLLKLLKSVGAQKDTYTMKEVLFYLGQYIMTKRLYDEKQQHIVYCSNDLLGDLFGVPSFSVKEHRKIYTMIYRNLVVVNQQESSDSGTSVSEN

Type in all cases: binding
One assay has as its target T1, HDM2 (1-125) M62A (Homo sapiens, UniProt Q00987, M62A).
T1 construct: using purified HDM2 (1-125) and carboxyfluorescein (FAM) labeled 12-1 peptide; GST (N, cleaved yes); made in house; host or cells: E. coli BL21 DE3
The assay is described as follows: Fluorescence anisotropy, competitive titration, HDM2 M62A. The following applies: M62A compared to wild-type. On the procedure:
(§1) Cells harbouring the GST fusion constructs were grown in LB medium at 37°C to an OD600 of ~0.6 and induction was carried out with 1 mM IPTG at room temperature. Cells were harvested by centrifugation and the cell pellets were resuspended in 50 mM Tris pH 8.0, 10% sucrose and then sonicated. The sample was next centrifuged for 60 mins at 17,000 g at 4°C. The supernatant was applied to a 5 mL FF GST column (Amersham) pre-equilibrated in wash buffer (50 mM Tris-HCl pH 8.0, 150 mM NaCl, 1 mM DTT). The column was then further washed by 6 volumes of wash buffer. HDM2 constructs were then purified from the column by cleavage with Precission protease (GE Lifesciences). 10 units of precission protease, in one column volume of wash buffer, were injected onto the column. The cleavage reaction was allowed to proceed overnight at 4°C. The cleaved protein was then eluted off the column with wash buffer. Protein fractions were analyzed with SDS page gel and concentrated using Centricon (3.5 kDa MWCO) concentrator. […] Protein fractions were analyzed with SDS page gel and concentrated using a Centricon (3.5 kDa MWCO) concentrator, Millipore.
(§2) All titrations were carried out in triplicate. Curve-fitting was carried out using Prism 4.0 (GraphPad).
(In general: Polarisation of emitted light reports the rotation of a fluorescent probe.)

A further assay deals with T2, HDM2 (1-125) Q24R (Homo sapiens, UniProt Q00987, Q24R).
T2 construct: using purified HDM2 (1-125) and carboxyfluorescein (FAM) labeled 12-1 peptide; GST (N, cleaved yes); made in house; host or cells: E. coli BL21 DE3
The assay is described as follows: Fluorescence anisotropy, competitive titration, HDM2 Q24R. The note with it: Q24R compared to wild-type. On the procedure:
as §1, §2

In a further assay the target is T3, HDM2 (1-125) P20L (Homo sapiens, UniProt Q00987, P20L).
T3 construct: using purified HDM2 (1-125) and carboxyfluorescein (FAM) labeled 12-1 peptide; GST (N, cleaved yes); made in house; host or cells: E. coli BL21 DE3
The assay is described as follows: Fluorescence anisotropy, competitive titration, HDM2 P20L. The note with it: P20L compared to wild-type. On the procedure:
as §1, §2

`COc1ccc(C2=N[C@@H](c3ccc(Cl)cc3)[C@@H](c3ccc(Cl)cc3)N2C(=O)N2CCNC(=O)C2)c(OC(C)C)c1` [Nutlin]: the “Change of binding affinity versus wild-type HDM2” value on HDM2 (1-125) M62A is “significantly reduced affinity”; on HDM2 (1-125) Q24R, “reduced affinity”; at HDM2 (1-125) P20L, “reduced affinity”.
